A word on the Kd: it is the constant that tells how readily two partners part at equilibrium.

Assay [1] deals with human angiotensin II type 1 (AT1) receptor (human) (UniProt P30556). The assay can be described thus: radioligand binding; saturation: [125I]-Ang II (0-100 nM) on membrane extracts of HEK293A cells transfected with the human AT1 receptor, in the presence of Hcy (100 μM); 4 °C, 24 h.
Assay [2] shares this target. The assay can be described thus: radioligand binding; saturation: [125I]-Ang II (0-100 nM) on membrane extracts of HEK293A cells transfected with the human AT1 receptor, without Hcy; 4 °C, 24 h; binding to non-transfected membranes subtracted.

In the case of [125I]-Angiotensin II (peptide), the Kd amounted to 14.5 nM in assay [1] and 10.8 nM in assay [2].

Values taken from paper PMC5750214 (Nature Communications, 2018).
